This experiment concerns the target Rap guanine nucleotide exchange factor 4 (Homo sapiens) (UniProt Q8WZA2). Kind of experiment: Validation qHTS for antagonist of cAMP-regulated guanine nucleotide exchange factor 4 (EPAC2). Note: nearly all actives have a fitted effect of over 40% in size. The note with it: EPAC2 Rap1B BODIPY-GDP exchange, fluorescence. The text has this:
Principle Investigator: Xiaodong Cheng Ph.D. The University of Texas Medical Branch, […], TX MLPCN Grant: NS066510 In multi-cellular eukaryotic organisms, the effects of cAMP are transduced by two ubiquitously-expressed intracellular cAMP receptors, the classic protein kinase A/cAMP-dependent protein kinase (PKA/cAPK) and the more recently discovered exchange protein directly activated by cAMP/cAMP-regulated guanine nucleotide exchange factor (EPAC/cAMP-GEF). Both PKA and EPAC are ubiquitously expressed in all tissues, and an increase in intracellular cAMP levels will lead to the activation of both PKA and EPAC. Therefore, careful dissections of the individual role and relative contribution of EPAC and PKA within the overall cAMP signaling in various model systems are critical for further elucidating the mechanism of cAMP signaling. To date no EPAC-specific antagonists and agonist, as well as isoform-specific agonists have been reported, and developing EPAC-specific pharmacological probes to determine the physiological functions that EPAC play in the overall cAMP-mediated signaling remains a major challenge within the research field. Furthermore, identified regulators of EPAC may lead to new mechanism-based therapeutic strategies specifically targeting the EPAC / cAMP-signaling components as EPAC has been implicated to play important roles in major human pathological conditions such as diabetes, heart disease, and cancer. This qHTS will be used to screen the Molecular Libraries Small Molecule Repository (MLSMR) as a concentration-titration series using the NCGC unique quantitative screening (qHTS) platform to find activators for EPAC1. In addition, this assay will also be used as a counterscreen for the EPAC2 qHTS. This fluorescent based assay is developed and validated for EPAC1 that measures exchange using EPAC effector Rap1 complex with BODIPY-GDP, a GDP analog with a tethered fluorophores. Activators are identified by monitoring the change in fluorescence signal as the exchanged free BODIPY-GDP has a reduced fluorescence compared to Rap1-bound BODIPY-GDP. Increase in signal (activation) is the desired outcome for the EPAC1 agonist while no activity in this assay is desired for the EPAC2 agonist counterscreen. Reference: [1] de Rooij, J., Zwartkruis, F. J., Verheijen, M. H., Cool, R. H., Nijman, S. M., Wittinghofer, A., and Bos, J.L. (1998) Nature 396, 474-477.
Briefly, three uL of reagents (100 nM EPAC2, 250 nM RAP1B-BODIPY-GDP, 50 uM GDP) were dispensed into a 1536-well Greiner black solid-bottom medium binding assay plate. Controls and test compounds (23 nL) were transferred to the plate via a Kalypsys pin tool equipped with a 1536-pin array. The plates were centrifuged at 1,000 rpm for 15 seconds followed by 5 minute incubation at room temperature. The assay plates were read at 5 minute intervals for 30 minutes in the ViewLux plate reader using 480nm excitation and 540nm emission filters. The results were normalized to the agonist positive control of 6.5 mM cAMP.
A general note: Quantitative high-throughput screening tests each substance at several concentrations.

Protein sequences, listed by entry. Tags and fused reporters are not part of them.
UniProt Q8WZA2, whole entry: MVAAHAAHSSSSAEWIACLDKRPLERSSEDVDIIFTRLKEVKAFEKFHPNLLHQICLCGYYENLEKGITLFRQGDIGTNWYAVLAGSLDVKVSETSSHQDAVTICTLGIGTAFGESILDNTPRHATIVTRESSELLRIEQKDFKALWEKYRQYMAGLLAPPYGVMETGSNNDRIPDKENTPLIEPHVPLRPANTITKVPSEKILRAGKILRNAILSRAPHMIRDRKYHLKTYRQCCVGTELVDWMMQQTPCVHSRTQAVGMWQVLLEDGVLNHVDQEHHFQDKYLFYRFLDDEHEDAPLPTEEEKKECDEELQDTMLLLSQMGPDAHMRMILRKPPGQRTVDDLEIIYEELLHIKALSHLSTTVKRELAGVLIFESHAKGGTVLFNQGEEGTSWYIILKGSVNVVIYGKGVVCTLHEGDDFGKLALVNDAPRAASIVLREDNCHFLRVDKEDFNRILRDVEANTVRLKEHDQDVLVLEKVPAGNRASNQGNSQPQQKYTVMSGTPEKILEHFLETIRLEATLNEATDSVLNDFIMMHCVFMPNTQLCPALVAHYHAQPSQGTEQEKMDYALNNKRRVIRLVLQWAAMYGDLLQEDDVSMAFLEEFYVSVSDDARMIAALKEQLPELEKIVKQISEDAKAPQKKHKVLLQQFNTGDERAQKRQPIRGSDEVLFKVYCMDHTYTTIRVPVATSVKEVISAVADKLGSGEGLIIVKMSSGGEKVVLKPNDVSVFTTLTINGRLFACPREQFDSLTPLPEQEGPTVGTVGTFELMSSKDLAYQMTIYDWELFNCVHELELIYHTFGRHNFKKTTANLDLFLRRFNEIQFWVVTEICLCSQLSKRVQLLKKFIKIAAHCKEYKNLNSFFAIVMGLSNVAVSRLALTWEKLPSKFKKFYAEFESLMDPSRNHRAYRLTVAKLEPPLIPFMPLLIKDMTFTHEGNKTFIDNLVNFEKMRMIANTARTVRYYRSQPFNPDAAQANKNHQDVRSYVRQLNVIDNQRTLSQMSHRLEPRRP

The list shows a part of the results, in another mix than the full data. Results filed as inconclusive are left out. Active and inactive are the calls of the source. Calls come from the whole dose curve; as a rule, active = well fitted inhibition curve with a large enough effect; inconclusive = small, poorly fitted or top-dose-only effect; inactive = no such curve, though single readings can be large or run the other way.

This passage reports activity, negative = inhibition results from PubChem BioAssay AID1645886 (National Center for Advancing Translational Sciences (NCATS), 2021).

Take `O=[N+]([O-])[O-].[NH4+]`: the activity, negative = inhibition (at 112 µM (top of the series)) was inactive: 1.75%.
`CN(C)CCS`: the activity, negative = inhibition (at 112 µM (top of the series)) is inactive: 7.13%.
On the same count and under the same terms, the value for `CC(C)N(CCCl)C(C)C` was inactive: 11.6%.
For the molecule `O=[N+]([O-])c1cccc([N+](=O)[O-])c1`, the activity, negative = inhibition (at 112 µM (top of the series)) was inactive: -20.6% and the activity, negative = inhibition (at 239 µM (top of the series)) is inactive: 0.688%.
For `CCOP(=O)(CC)Oc1ccc([N+](=O)[O-])cc1` (stereo unspecified), the activity, negative = inhibition (at 112 µM (top of the series)) is inactive: 11.3%.
Regarding `Cc1cccc([N+](=O)[O-])c1[N+](=O)[O-]`, the activity, negative = inhibition (at 239 µM (top of the series)) is inactive: 10.2%.
Consider `CCN(CCCl)Cc1ccccc1C`, for which the activity, negative = inhibition (at 112 µM (top of the series)) is inactive: -6.07%.
`C/C1=C2N=C(/C=C3N=C(/C(C)=C4\[N-][C@@](C)([C@@H]5N=C1[C@](C)(CCC(=O)NC[C@@H](C)OP(=O)([O-])O[C@H]1[C@@H](O)[C@@H](n6cnc7cc(C)c(C)cc76)O[C@@H]1CO)[C@H]5CC(N)=O)[C@@](C)(CC(N)=O)[C@@H]4CCC(N)=O)[C@@](C)(CC(N)=O)[C@@H]\3CCC(N)=O)C(C)(C)[C@@H]/2CCC(N)=O.[C-]#N.[Co+3]`: the activity, negative = inhibition (at 56.6 µM (top of the series)) is inactive: -11%.
With `OCCSCCO`, the activity, negative = inhibition (at 112 µM (top of the series)) was inactive: 13.1%.
As for `CC(C)OP(=O)(F)OC(C)C`, the activity, negative = inhibition (at 112 µM (top of the series)) is inactive: 4.54%.
